Measurements: article PMC3830123 (Biomolecules & Therapeutics, 2013)

Sequences of proteins named here, by UniProt entry; tags and fusion partners are left off.
UniProt P21396, whole entry: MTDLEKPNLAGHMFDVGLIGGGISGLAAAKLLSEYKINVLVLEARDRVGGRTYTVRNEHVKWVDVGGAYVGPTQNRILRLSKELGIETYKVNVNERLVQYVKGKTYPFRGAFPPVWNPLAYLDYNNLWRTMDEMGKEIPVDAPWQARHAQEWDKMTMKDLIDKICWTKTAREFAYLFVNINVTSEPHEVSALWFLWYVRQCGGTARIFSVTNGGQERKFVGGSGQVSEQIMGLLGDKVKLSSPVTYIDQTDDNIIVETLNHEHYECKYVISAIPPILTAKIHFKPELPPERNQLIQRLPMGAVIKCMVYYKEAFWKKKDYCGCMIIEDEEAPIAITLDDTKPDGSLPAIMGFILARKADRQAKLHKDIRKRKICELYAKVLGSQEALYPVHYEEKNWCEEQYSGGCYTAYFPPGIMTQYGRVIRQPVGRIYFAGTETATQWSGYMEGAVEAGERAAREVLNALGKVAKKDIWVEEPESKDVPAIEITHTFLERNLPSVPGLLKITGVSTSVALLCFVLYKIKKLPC

Molecular target: Rat brain mitochondrial MAO (MAO-A) (Rattus norvegicus, UniProt P21396)
Experiment: MAO-A assay in vitro, serotonin as substrate
Type: biochemical

## CC(C)NNC(=O)c1ccncc1 [Iproniazid, reference compound]
  IC50: 37 µM
